Values of other authors in patent US11021435B2, “Serotonin receptor-targeting compounds and methods” (priority 2014, dated 2021).

Chains of the proteins cited; added tags and fusions are not shown.
UniProt P41595, whole entry: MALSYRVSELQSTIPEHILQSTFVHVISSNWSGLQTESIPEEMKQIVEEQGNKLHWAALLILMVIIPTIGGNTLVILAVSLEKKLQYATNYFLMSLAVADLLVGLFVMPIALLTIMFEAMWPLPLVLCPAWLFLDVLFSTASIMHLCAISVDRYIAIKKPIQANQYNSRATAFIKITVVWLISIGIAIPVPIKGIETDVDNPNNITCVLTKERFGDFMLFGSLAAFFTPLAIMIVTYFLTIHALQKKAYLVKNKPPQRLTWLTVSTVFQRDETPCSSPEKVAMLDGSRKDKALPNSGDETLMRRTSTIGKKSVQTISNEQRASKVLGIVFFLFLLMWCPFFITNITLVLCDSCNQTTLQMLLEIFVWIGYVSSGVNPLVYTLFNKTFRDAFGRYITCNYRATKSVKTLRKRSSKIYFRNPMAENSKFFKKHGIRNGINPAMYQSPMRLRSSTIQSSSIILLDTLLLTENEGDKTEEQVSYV
UniProt P28223, whole entry: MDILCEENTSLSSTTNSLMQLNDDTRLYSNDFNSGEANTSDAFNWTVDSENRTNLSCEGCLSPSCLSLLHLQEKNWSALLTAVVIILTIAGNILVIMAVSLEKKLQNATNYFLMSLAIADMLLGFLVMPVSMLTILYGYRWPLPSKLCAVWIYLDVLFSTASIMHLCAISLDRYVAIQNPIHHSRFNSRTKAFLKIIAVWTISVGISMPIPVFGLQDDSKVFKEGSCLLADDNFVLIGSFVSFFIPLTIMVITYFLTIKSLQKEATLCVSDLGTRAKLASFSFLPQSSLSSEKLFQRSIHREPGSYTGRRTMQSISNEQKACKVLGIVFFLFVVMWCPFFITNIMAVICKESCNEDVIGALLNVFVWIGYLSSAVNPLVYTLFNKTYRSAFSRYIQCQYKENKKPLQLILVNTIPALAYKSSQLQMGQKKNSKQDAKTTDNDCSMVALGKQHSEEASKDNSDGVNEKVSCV

Tests used:
5-HT2B = 5-HT2B (Homo sapiens, UniProt P41595); set-up: expressed in transfected cells; host or cells: HEK293, transient; details: cited from earlier work
5-HT2A = 5-HT2A (Homo sapiens, UniProt P28223); set-up: expressed in transfected cells; host or cells: HEK293, transient; details: cited from earlier work

## Clc1cccc(N2CCNCC2)c1 [mCPP]
5-HT2B
  Activation of 5-HT2B receptors by reported selective 5-HT2C agonists: also activate
5-HT2A
  Activation of 5-HT2A receptors by reported selective 5-HT2C agonists: also activate
